# Publication PMC8196714, “Design, Radiosynthesis and Preliminary Biological Evaluation in Mice of a Brain-Penetrant ^18F-Labelled σ2 Receptor Ligand” (International Journal of Molecular Sciences, 2021)
# Protein sequences, listed by entry. Tags and fused reporters are not part of them.
# UniProt Q99720, whole entry: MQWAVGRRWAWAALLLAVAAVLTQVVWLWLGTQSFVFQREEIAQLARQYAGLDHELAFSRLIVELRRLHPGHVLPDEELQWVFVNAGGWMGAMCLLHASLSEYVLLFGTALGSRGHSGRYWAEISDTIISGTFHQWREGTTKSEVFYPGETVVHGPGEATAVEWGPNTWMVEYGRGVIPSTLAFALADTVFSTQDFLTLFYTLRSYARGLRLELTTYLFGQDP
# Molecular target: human σ1 receptors (Homo sapiens, UniProt Q99720)
# Assay: σ1 receptor affinity, competitive binding with [3H]-(+)-pentazocine (HZDR Leipzig)
# Conditions: determined at HZDR Leipzig
# Text: To decide which of the nine compounds would be suitable for subsequent radiofluorination, we determined the affinity towards the σ1 receptor as the most relevant off-target protein. […] To finally select the best derivative for radiofluorination, we calculated the σ2:σ1 selectivity values and identified RM273 (41) as the most suitable one with a ratio of about 400.
# Binding affinity experiments to assess the Ki values of test compounds towards rat σ2 receptors, human σ1 receptors, and rat VAChT were performed according to protocols previously published by our group. The same protocol was used to determine the KD and Bmax values of RM273 towards σ2 receptors expressed in F98 cells by homologous competition analyzing the displacement of [^18F]RM273 by RM273.
structure (smiles),measurement,value
"Fc1ccc(-n2cc(CCCCN3CCC4(CC3)OCc3ccccc34)c3ccccc32)cc1 [Siramesine, siramesine, reference compound]",Ki,13 nM
